Measurements: US20150073008A1, “Topical Application of Vinca Alkaloids for the Treatment of Actinic Keratosis” (Merz Pharma GmbH & Co. KGaA, priority 2013, published 2015)

Assay: Dermal absorption study with human skin (Franz diffusion cells, 3H-API)
Conditions: different concentrations and formulations (cream, liposomes, hydro-tops)

## Vinblastine sulfate hydrate
  dermal absorption (in words): good dermal absorption
